The values that follow come from ChEMBL document CHEMBL1121735, “Synthesis and adrenoceptor affinity of some highly polar beta-substituted catecholamines” (J Med Chem, 1981).

This assay has as its target Adrenergic receptor alpha. Kind of assay: Binding affinity against Alpha adrenergic receptor using [3H]dihydroergocryptine radioligand in rat brain homogenate. It counts as tissue-based.

On to `CNC[C@H](O)c1ccc(O)c(O)c1` [EPINEPHRINE], for which the IC50 turned out to be 1.7e-8 M l-1.
